# Measurements from BindingDB's records for doi:10.1124/jpet.301.2.527 (Mercer University, 2002).
# Sequences of proteins named here, by UniProt entry; tags and fusion partners are left off.
# UniProt P31652, whole entry: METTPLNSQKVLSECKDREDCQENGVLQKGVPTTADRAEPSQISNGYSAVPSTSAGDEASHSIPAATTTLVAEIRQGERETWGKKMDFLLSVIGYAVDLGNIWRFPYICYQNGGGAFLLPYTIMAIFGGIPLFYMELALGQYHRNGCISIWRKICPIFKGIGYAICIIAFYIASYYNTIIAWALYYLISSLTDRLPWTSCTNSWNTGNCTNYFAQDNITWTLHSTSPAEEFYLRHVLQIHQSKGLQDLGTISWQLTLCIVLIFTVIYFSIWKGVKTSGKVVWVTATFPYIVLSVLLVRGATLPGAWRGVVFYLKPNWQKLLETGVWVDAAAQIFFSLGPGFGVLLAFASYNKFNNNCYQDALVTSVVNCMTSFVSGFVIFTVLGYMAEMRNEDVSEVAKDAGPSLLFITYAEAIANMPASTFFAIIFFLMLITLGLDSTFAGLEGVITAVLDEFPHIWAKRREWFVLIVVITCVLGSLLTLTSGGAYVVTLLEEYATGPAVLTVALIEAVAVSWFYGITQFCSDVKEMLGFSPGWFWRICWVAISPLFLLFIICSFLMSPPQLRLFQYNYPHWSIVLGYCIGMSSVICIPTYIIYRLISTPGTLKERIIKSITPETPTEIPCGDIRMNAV
# Molecular target: Sodium-dependent serotonin transporter (Rattus norvegicus, UniProt P31652)
structure (smiles),measurement,value
COC(=O)[C@H]1[C@@H](OC(=O)c2ccccc2)C[C@@H]2CC[C@H]1N2C [Cocaine (-)],Ki,401 nM
